{"source": "patent US12037644B2", "about": "“Use of FGFR mutant gene panels in identifying cancer patients that will be responsive to treatment with an FGFR inhibitor” (Janssen Pharmaceutica NV, priority 2014, dated 2024)", "conditions_in_all_cases": "Rattus norvegicus, 72 h, read-out: Stimulated Proliferation (IC50)", "key": {"[1]": {"test_system": "RK3E-Transgene CASP7 (FGFR fusion stably transfected RK3E cells)", "assay": "Drug response testing (Cell Titer-Glo proliferation), RK3E FGFR2:CASP7"}, "[2]": {"test_system": "RK3E-Transgene AFF3 (FGFR fusion stably transfected RK3E cells)", "assay": "Drug response testing (Cell Titer-Glo proliferation), RK3E FGFR2:AFF3"}, "RK3E-Transgene FGFR2": {"test_system": "RK3E-Transgene FGFR2", "assay": "Drug response testing (Cell Titer-Glo proliferation), RK3E FGFR2"}, "[3]": {"test_system": "RK3E-Transgene OFD1 (FGFR fusion stably transfected RK3E cells)", "assay": "Drug response testing (Cell Titer-Glo proliferation), RK3E FGFR2:OFD1"}, "[4]": {"test_system": "RK3E-Transgene CCDC6 (FGFR fusion stably transfected RK3E cells)", "assay": "Drug response testing (Cell Titer-Glo proliferation), RK3E FGFR2:CCDC6"}, "[5]": {"test_system": "RK3E-Transgene BICC1 (FGFR fusion stably transfected RK3E cells)", "assay": "Drug response testing (Cell Titer-Glo proliferation), RK3E FGFR2:BICC1"}}, "data": [{"compound": "COc1cc(CCc2cc(NC(=O)c3ccc(N4C[C@@H](C)N[C@@H](C)C4)cc3)n[nH]2)cc(OC)c1", "note": "[AZD4547, N-[5-[2-(3,5-Dimethoxyphenyl)ethyl]-2H-pyrazol-3-yl]-4-(3,5-diemthylpiperazin-1-yl)benzamide]", "values": [{"measurement": "IC50", "setting": "[1]", "value": 4.11, "unit": "nM"}, {"measurement": "IC50", "setting": "[2]", "value": 2.81, "unit": "nM"}, {"measurement": "IC50", "setting": "RK3E-Transgene FGFR2", "value": 6500, "unit": "nM"}, {"measurement": "IC50", "setting": "[3]", "value": 7.26, "unit": "nM"}, {"measurement": "IC50", "setting": "[4]", "value": 13.4, "unit": "nM"}, {"measurement": "IC50", "setting": "[5]", "value": 6.45, "unit": "nM"}]}]}
